Laboratory results reported in publication PMC6858373 (Scientific Reports, 2019).

Test system: Clone V cells
Settings: human

## Plicamycin
  Toxicity Assay % Fluor (CTB cell viability fluorescence): 115.83%
  Toxicity Assay Z-score (CTB cell viability): 2.21
